Test results as given in ChEMBL document CHEMBL1138069, “Synthesis and SAR of 1,3-disubstituted cyclohexylmethyl urea and amide derivatives as non-peptidic motilin receptor antagonists” (Bioorg Med Chem Lett, 2006).

Protein sequences, listed by entry. Tags and fused reporters are not part of them.
UniProt A5A4K8, whole entry: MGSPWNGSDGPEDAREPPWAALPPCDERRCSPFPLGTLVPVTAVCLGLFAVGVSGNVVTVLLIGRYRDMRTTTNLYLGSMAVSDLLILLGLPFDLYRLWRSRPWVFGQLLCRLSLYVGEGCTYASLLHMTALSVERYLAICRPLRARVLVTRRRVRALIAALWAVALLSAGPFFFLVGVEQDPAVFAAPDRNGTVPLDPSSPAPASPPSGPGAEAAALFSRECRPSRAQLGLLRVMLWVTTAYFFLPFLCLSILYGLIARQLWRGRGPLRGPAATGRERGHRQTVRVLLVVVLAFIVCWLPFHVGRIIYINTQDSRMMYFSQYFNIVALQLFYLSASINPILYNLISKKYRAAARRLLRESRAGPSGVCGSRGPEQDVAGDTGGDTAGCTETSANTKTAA

What was measured:
Motilin receptor [1] = target: T1, Motilin receptor (Oryctolagus cuniculus, UniProt A5A4K8); experiment: Inhibition of [125]I-motilin binding to rabbit motilin receptor
Method in brief: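 Rabbit colon membranes, homogenized in Tris–HCl pH 7.5 and centrifuged, with the pellet stored frozen. Binding was run in HEPES pH 7.0 with 15 mg/mL BSA, protease inhibitors and 125I-porcine motilin (50,000–70,000 cpm; 2000 Ci/mmol) for 60 min at 30 °C. Bound tracer was separated by centrifugation. Nonspecific binding was taken with unlabeled porcine motilin. IC50 values are means of at least two separate determinations.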

Motilin receptor [2] = target: T1, Motilin receptor; experiment: Activity at rabbit duodenum motilin receptor by tissue contractility assay; assay type: functional

Row | Compound | IC50 (Motilin receptor [1]) [nM] | IC50 (Motilin receptor [2]) [nM]
1 | CC(C)(C)C(=O)N(Cc1ccccc1)[C@@H]1CCC[C@H](CN(C(=O)c2ccc(F)cc2)c2cccc(OCCN3CCCC3)c2)C1 | 10 | 8
2 | CC(C)(C)C(=O)N(Cc1ccccc1)[C@H]1CCC[C@@H](CN(C(=O)c2ccc(F)cc2)c2cccc(OCCN3CCCC3)c2)C1 | 72 | 638
3 | CC(C)(C)C(=O)N(Cc1ccccc1)C1CCCC(CN(C(=O)c2ccc(F)cc2)c2cccc(OCCN3CCCC3)c2)C1 (racemic) | – | 24
